# Apparent affinities of Ab-95 variants for a coronavirus HR2 peptide

Values reported by Engelhart et al. 2022, doi:10.1038/s41597-022-01779-4 (FLAb copy).

The target is the same throughout: PDVDLGDISGINAS, from the HR2 region of SARS-CoV-2 spike.

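The parent was found by panning a naive human phage display library on the peptide. In library AAYL52, one, two or three CDR residues were substituted; doubles and triples were drawn at random. The assay is AlphaSeq: two haploid yeast populations carry antibody and antigen on their surface. Binding brings cells together so that they mate, and sequencing counts the barcode pairs among the diploids. Each replicate has its own calibration line, from reference interactions of the BCL2 family. The assay was run in three technical replicates.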

The variants keep the heavy chain, the linker and the frameworks of Ab-95 (scFv order VH, a 15-residue (Gly4Ser)3 linker, VL).
VH: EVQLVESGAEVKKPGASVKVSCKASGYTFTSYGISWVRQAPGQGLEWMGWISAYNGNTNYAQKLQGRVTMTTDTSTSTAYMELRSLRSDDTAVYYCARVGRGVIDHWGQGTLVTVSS
VL: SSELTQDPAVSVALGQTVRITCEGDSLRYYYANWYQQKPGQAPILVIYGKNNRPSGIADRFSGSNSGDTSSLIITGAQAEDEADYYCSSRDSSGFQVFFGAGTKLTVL

The parent's light chain CDRs are EGDSLRYYYAN, GKNNRPS, SSRDSSGFQVF; each variant's own CDRs replace them letter for letter. The read-out is the apparent dissociation constant on a log10 scale (nM): the lower, the stronger. The mean shown is taken over the replicates in which the pair was detected. Where no diploid with the target was found in that replicate, the entry reads "nd": below detection, most likely a poor binder, though not proof of it. Three control strains display no target. For library AAYL52, 28% of the pairings with them gave a signal, with a median of 3.91 and one signal in twenty below 2.90, so weak values seen in few replicates may be background. For each scFv, signals with the empty controls are counted beside the result, with their mean in brackets.

CDR-L1 | CDR-L2 | CDR-L3 | replicates, log10 nM | log10 Kd (nM), mean | signal with controls
EGDSLRYWYAN | GKNNRPH | SSRDTSGFQVF | 3.83 3.65 3.99 | 3.82 | 2 of 9 (3.58)
CHESLRYYYAN | GKNNRPS | SSRDSSGFQVF | nd nd 1.71 | 1.71 | 0 of 9
EGDSLRYEYAN | GDNNRIS | SSRDSSGFQVF | 1.60 1.57 1.53 | 1.57 | 4 of 9 (4.26)
SGDSLRYQYAN | GKNNRPS | SSRDSSGFHVF | 0.67 0.64 -0.07 | 0.42 | 3 of 9 (4.40)
EGDQLRYYYQI | GKNNRPS | SSRDSSGFQVF | nd nd nd | nd | 0 of 9
EGDSLRNYYAN | GYNNRPR | SSRDSSGFQVF | 3.85 3.12 nd | 3.48 | 2 of 9 (4.15)
EGDSARYYYAN | GKNNRPC | SSRSSSGFQVF | nd nd 3.71 | 3.71 | 1 of 9 (3.03)
EGDSLRYYYAN | VKNNRPG | SSRESSGFQVF | nd 3.98 nd | 3.98 | 3 of 9 (4.24)
EGDSLRYYYAN | GIDNRPS | SSRDSIGFQVF | 5.24 3.44 nd | 4.34 | 3 of 9 (3.81)
EIDSLRYYYAN | GKNNRPS | SSRCSSNFQVF | nd nd nd | nd | 2 of 9 (3.77)
EGDSFRYYYGN | GKNNRPS | SSRDSSGFQQF | nd nd nd | nd | 1 of 9 (4.37)
EGDSLRYYYAN | GKNHRPS | SNRDSSGNQVF | 3.57 4.27 nd | 3.92 | 1 of 9 (3.39)
EGDSLRYDYYN | GKNNRPS | SSRDMSGFQVF | 4.57 3.47 nd | 4.02 | 2 of 9 (4.36)
EGDALRYYYAN | AKNNRPS | SSRDSSGFQVF | 3.50 nd 3.91 | 3.70 | 0 of 9
EGDSLRYYYAN | GKNNRTD | SSRDSSGFQVF | 2.10 1.81 1.45 | 1.78 | 2 of 9 (3.32)
EYGSLRYYYAN | GKNNRPS | SSRTSSGFQVF | 2.82 2.46 nd | 2.64 | 1 of 9 (3.67)
EGDSYRYYYAN | GKNNHPS | SSRDSSGFQVF | nd nd nd | nd | 0 of 9
EGDSLRYYYIN | GKNNRPG | SSRDSSGFQVY | 2.38 2.45 2.03 | 2.29 | 5 of 9 (4.09)
EGDSLRYYYAN | GKNNRPS | SSRDSTGFEVF | 2.39 2.24 2.46 | 2.36 | 0 of 9
EGDSLRYYYYT | GKNNRPS | SSRDSKGFQVF | 4.31 nd 4.03 | 4.17 | 4 of 9 (3.97)
EEDMLRYYYAN | GKNNRPS | SSRDMSGFQVF | 4.16 nd nd | 4.16 | 4 of 9 (4.87)
EGDSERYYYAN | GKNNRPS | SSRASSGFQVF | 4.23 nd 4.06 | 4.15 | 2 of 9 (4.50)
EGDSLRYYYAN | GKNNRPA | SSMYSSGFQVF | nd nd nd | nd | 0 of 9
PGDSLRYYYAN | GKNNRPS | SSEDSSGFWVF | nd 4.24 4.46 | 4.35 | 4 of 9 (3.71)
GGASLRYYYAN | GKNNRPS | SSRMSSGFQVF | 2.29 1.73 1.49 | 1.84 | 6 of 9 (4.48)
EGDSLWYYYAN | GKNNRPS | RHRDSSGFQVF | 3.61 nd 3.86 | 3.73 | 4 of 9 (3.67)
EGDSLRYYYAN | WKNNRPT | SSRDSSWFQVF | nd nd nd | nd | 5 of 9 (3.62)
EGDSQRYMYAN | GKNNRPS | TSRDSSGFQVF | nd 3.60 4.16 | 3.88 | 2 of 9 (3.57)
EGDSLRYFYAN | GYNMRPS | SSRDSSGFQVF | 3.97 4.11 nd | 4.04 | 3 of 9 (4.41)
EGDSLRYYYAN | GKNCRPS | SSRDSSFFQVR | nd nd 4.13 | 4.13 | 4 of 9 (3.97)
IGDSLRYYYAN | GKNNRPS | ISRKSSGFQVF | 2.32 2.90 2.72 | 2.65 | 4 of 9 (3.71)
EGDSIRYLYAW | GKNNRPS | SSRDSSGFQVF | 3.47 nd nd | 3.47 | 2 of 9 (3.77)

The 5 strongest on average among those seen in every replicate, once more:

CDR-L1 | CDR-L2 | CDR-L3 | replicates, log10 nM | log10 Kd (nM), mean | signal with controls
SGDSLRYQYAN | GKNNRPS | SSRDSSGFHVF | 0.67 0.64 -0.07 | 0.42 | 3 of 9 (4.40)
EGDSLRYEYAN | GDNNRIS | SSRDSSGFQVF | 1.60 1.57 1.53 | 1.57 | 4 of 9 (4.26)
EGDSLRYYYAN | GKNNRTD | SSRDSSGFQVF | 2.10 1.81 1.45 | 1.78 | 2 of 9 (3.32)
GGASLRYYYAN | GKNNRPS | SSRMSSGFQVF | 2.29 1.73 1.49 | 1.84 | 6 of 9 (4.48)
EGDSLRYYYIN | GKNNRPG | SSRDSSGFQVY | 2.38 2.45 2.03 | 2.29 | 5 of 9 (4.09)